Experimental findings from patent US5763271A, “Vasodilatory and immune suppressant peptides” (The President and Fellows of Harvard College, priority 1994, dated 1998) are described below.

In assay [1] the test system is BALB/c peritoneal macrophages. The assay can be described thus: Macrophage presentation of OVA to OVA-specific T-cell line (3H TdR incorporation). Format: cell-based, mice. To be noted: rat CGRP 1.25×10^-7 M 3 hrs. The source says:
An OVA-specific T-cell line was produced in BALB/c mice (Titus et al., J. Immunol. 133:1594 (1984)). The line was L3T4^+ and was maintained by successive cycles of restimulation and rest in vitro (Kimono et al., J. Exp. Med. 152:759 (1980)). As a source antigen-presenting cells, BALB/c peritoneal cells (Titus et al., Clin. Exp. Immunol. 55:157, 1984) were placed into microtiter wells (10^4 /well) in Dulbecco's modified Eagle's medium (DMEM) (Maryanski et al., Eur. J Immunol. 12:401 (1982) supplemented with 5% fetal calf serum (Hyclone, Logan, Utah) and cultured overnight. Non-adherent cells were rinsed out of the wells, and medium with or without rat CGRP (1.25×10^-7 M) was added as a pre-incubation step. Three hours later the wells were rinsed to remove the CGRP and the indicated number of OVA-specific T-cells (Sigma, St. Louis, Mo.) were added. At varying times thereafter, the wells were pulsed with 1 μCi^3 H methylthymidine (^3 H TdR) (Amersham, Arlington Heights, Ill.) and thymidine incorporation was assessed (Titus et al., J. Immunol. 133:1594 (1984)).
BALB/c peritoneal macrophages (10^4 /well) were used as antigen-presenting cells. The macrophages were preincubated in 1.25×10^-7 M rat CGRP for three hrs., and the CGRP was then washed away. OVA-specific T-cells and OVA were then added to the cultures to assist the ability of the CGRP-treated macrophages to present antigen as measured by the degree of proliferation of the T-cells. Forty-eight hours later the cultures were pulsed with ^3 H TdR to assess the degree of proliferation of the T-cells. The numbers in Table 5 below represent the mean thymidine incorporation of quadruplicate cultures±SD. Background responses (macrophages+T-cells but no OVA, or T-cells+OVA but no macrophages) ranged between 300 to 500 CPM. Similar results were obtained with varying numbers (10^3 to 2×10^4 /well) of peritoneal cell macrophages. The results in the Table indicate that the ability of murine macrophages to present OVA to an OVA-specific T-cell line was inhibited by CGRP. Similar results were obtained with different numbers of T-cells and different doses of OVA to stimulate the cultures.

The next assay deals with human macrophages. Description: H2O2 production by IFN-γ activated macrophages (scopoletin fluorometric assay). Format: cell-based. The following applies: 3 h pretreatment. An excerpt:
Monocytes obtained by leukophoresis of healthy volunteers were purified on Ficoll-hypaque and Percoll (Pharmacia, Piscataway, N.J.) gradients and placed into microtiter well (5×10^5 /well) in RPMI-1640 (GIBCO, Grand Island, N.Y.) with 5% pooled normal human serum and 1% gentamycin (M. A. Bioproducts, Walkinville, Md.). The cells were greater than 95% macrophages as judged by esterase staining. (The Manual of Macrophage Methodology, Herrscowitz et al., eds. Marcel Dekker, N.Y., p. 199 (1981)). After one day in culture, non-adherent cells were rinsed away and the macrophages were treated, e.g., with human CGRP, Calcitonin, or LP as described below. Following treatment, the macrophages were incubated for three days with a concentration of from 100 to 400 units interferon gamma (Amgen Biologicals, Thousand Oaks, Calif.), in medium with 15% pooled normal human serum, at which time the H2 O2 concentration in the cells was determined.
H2 O2 production by macrophages was determined by fluorometric assay using the fluorophore scopoletin (de la Harpe et al., J. Immunol. Methods 78: 323 (1985)). […] The amount of H2 O2 released per culture is determined as nanomoles H2 O2. […] DNA was determined by a fluorescence assay (Kissane et al., J. Biol. Chem. 233: 189 (1958). […]

The next assay has as its system rabbit skin. Description: Vasodilator assay: erythema after intradermal injection into rabbit skin. Format: in vivo. As for the experimental part:
Reversed-phase high-performance liquid chromatography (HPLC) on the extract of 100 pairs of salivary glands is depicted in FIG. 1. 100 pairs of salivary glands were dissected in PBS. Lysates were made by freeze-thawing. The extract was spun in a microcentrifuge for 30 seconds before being applied to the column. A C-18 micropellicular HPLC column (Glycotech) was equilibrated with 20% acetonitrile/0.1% trifluoroacetic acid at 50° C. at a flow rate of 0.6 ml/minute. Three minutes after injection, a linear gradient was run for 20 minutes reaching 44% acetonitrile. Fractions were collected every 30 seconds and assayed for vasodilatory activity. The vasodilator assay was performed by diluting material from the gradient 10 fold and injecting 50 μl intradermally into the shaved back of a rabbit. The development of erythema at the injection site corresponded with the peak indicated. One μg of human CGRP, used as a control peptide, eluted as a peak of equal area, five minutes later. This observation implies that approximately 10 nanograms of LP are present per pair of salivary glands.
The amount of LP injected into the skin was based on the area of the absorbing peak collected from RP-HPLC. […] The area of resultant erythema was measured at 2 hours (triangles) and again at 4 hours (circles). […]

As for “calcitonin gene-related peptide (ACDTATCVTHRLAGLLSRSGGVVKNNFVPTNVGSKAF; Calcitonin gene-related peptide 1; UniProt P06881 83-119, looked up) [CGRP, neuropeptide calcitonin gene-related peptide; human form in the skin and H2O2 tests]”, the “Response (CPM ± SD) to stimulation with 200 mg/ml OVA” value is 1,620 ± 910 CPM in assay [1] (15,000 T cells/well) and 830 ± 500 CPM in assay [1] (30,000 T cells/well). The “Response (CPM ± SD) to stimulation with 400 mg/ml OVA” value in assay [1] (15,000 T cells/well) is given as 2,620 ± 700 CPM; in assay [1] (30,000 T cells/well) it was 3,380 ± 1,870 CPM. Also, in the assay on human macrophages (IFN-γ 200 units/ml, 72 hrs), the “lowest concentration significantly inhibiting H2O2 production” value was 2.5 nM. The “effect of higher concentrations on H2O2 production” value in the assay on human macrophages (concentrations above 2.5×10^-9 M, IFN-γ) was “completely abrogated”. Moreover, in the assay on rabbit skin (4 hours after injection), the “erythema at injection site at 4 hours” value is “only residual erythema”. Also, the “amount giving equivalent erythema” value in the assay with rabbit skin (two hours after injection, 50 μl PBS into shaved back of rabbit) came to 50 nanograms.
